Yeast mating assay 2: variants of the scFv Ab-95

The target is the same throughout: PDVDLGDISGINAS, from the HR2 region of SARS-CoV-2 spike.

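The library (AAYL52) carries one to three amino acid substitutions per variant, with no insertions or deletions. AlphaSeq pools MATa yeast showing the antibodies with MATalpha yeast showing the peptide. Mating (16 h, 30 °C) was followed by selection of diploids and sequencing of their barcodes. A regression on co-assayed BCL2-family reference pairs converts the normalised counts of each replicate to an apparent Kd. Each pool was mated in three replicate cultures.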

Ab-95 is the parent antibody, in scFv form: VH, then the linker GGGGSGGGGSGGGGS, then VL. The heavy chain is unchanged in all variants.
VH: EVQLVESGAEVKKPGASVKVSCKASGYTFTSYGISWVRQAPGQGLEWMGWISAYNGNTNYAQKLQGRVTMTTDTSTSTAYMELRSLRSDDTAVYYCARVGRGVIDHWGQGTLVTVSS
VL: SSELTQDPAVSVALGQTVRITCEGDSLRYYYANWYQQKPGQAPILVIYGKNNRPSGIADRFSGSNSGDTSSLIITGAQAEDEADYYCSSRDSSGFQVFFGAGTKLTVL

Changes read parent residue, position, new residue, counted from the first residue of the VL shown.
Scale: log10 of Kd in nM, estimated from mating counts; low values are strong binders.
The mean shown is taken over the replicates in which the pair was detected.
"ND" means that the variant was in the library but no mating with the target was seen in that replicate; the authors take this as a sign of poor binding, and no number exists.
Empty control strains, which show no peptide, gave a signal in 28% of pairings with library AAYL52; the median was 3.91 and 95% of these signals were weaker than 2.90. No background was subtracted. Also given: how often the same scFv was detected with the empty control strains, with their mean in brackets.
Parent in this assay: reference entry 2.31, copy in this library 2.25.

| changes | log10 Kd, replicates | mean, log10 nM | signal with controls |
|---|---|---|---|
| S26N/N51A/S89R | 4.41 ND ND | 4.41 | 4 of 9 (4.34) |
| S26R/P54G/S93Q | 3.18 3.60 2.61 | 3.13 | 6 of 9 (3.82) |
| E23I/L27Q/S88K | ND ND ND | ND | 3 of 9 (3.65) |
| E23K/Y29L/R53C | 3.53 3.82 ND | 3.67 | 1 of 9 (4.47) |
| Y29D/Y31S/S92T | 1.34 1.08 0.58 | 1.00 | 2 of 9 (5.18) |
| A32I/N52G/S89V | 4.61 ND 3.21 | 3.91 | 3 of 9 (4.41) |
| G24S/Y29I/F95E | ND ND ND | ND | 2 of 9 (3.53) |
| Y30D/N51P/Q96T | 3.23 ND ND | 3.23 | 2 of 9 (3.97) |
| E23G/N52Y/P54S | 2.46 2.27 2.12 | 2.28 | 6 of 9 (3.90) |
| E23N/S89V/G94V | ND ND ND | ND | 3 of 9 (3.65) |
| Y30S/S89A/S92M | 0.77 0.82 0.09 | 0.56 | 3 of 9 (3.67) |
| S89N/R90D/S93F | ND ND ND | ND | 1 of 9 (2.52) |
| N51D/R90M/S93V | ND 3.87 ND | 3.87 | 3 of 9 (3.97) |
| Y31P/S55L/S89Y | 1.03 1.15 0.45 | 0.87 | 1 of 9 (4.04) |
| S26Y/G49S/S93F | ND ND ND | ND | 2 of 9 (3.23) |
| S89L/R90M/S92P | 2.43 2.59 2.35 | 2.46 | 2 of 9 (3.86) |
| L27C/Q96L/F98P | ND ND ND | ND | 2 of 9 (4.20) |
| A32V/N33C/S55H | 3.70 ND ND | 3.70 | 1 of 9 (3.48) |
| E23P/K50H/G94Q | 4.25 5.22 ND | 4.73 | 6 of 9 (4.80) |
| G49A/R53Q/F98C | ND ND ND | ND | 1 of 9 (3.98) |
| L27F/Y29Q/N33T | 4.20 ND ND | 4.20 | 0 of 9 |
| R28M/S92A/S93K | 4.03 2.92 3.28 | 3.41 | 1 of 9 (3.41) |
| P54W/D91F/V97M | ND 4.15 ND | 4.15 | 2 of 9 (5.24) |
| Y29L/S92C/F98M | 4.60 5.35 4.50 | 4.82 | 3 of 9 (3.92) |
| N33D/N51A/D91W | ND 3.69 4.10 | 3.89 | 3 of 9 (3.46) |
| G24H/R53E/S92V | ND ND ND | ND | 0 of 9 |
| N33C/D91H | ND 3.52 4.22 | 3.87 | 1 of 9 (2.94) |
| S89H/F95S | ND 3.31 ND | 3.31 | 0 of 9 |
| D25R/N51F/V97T | ND 4.90 ND | 4.90 | 1 of 9 (3.77) |
| A32F/R53M/V97Y | ND ND ND | ND | 1 of 9 (3.16) |
| D25M/R28Y/R90P | ND ND ND | ND | 1 of 9 (3.67) |
| N51I/D91Y/S92E | ND ND ND | ND | 1 of 9 (3.24) |
| S26F/Y29G/Y31K | 2.89 2.59 2.77 | 2.75 | 4 of 9 (4.86) |
| N51T/R53C/F95V | ND 4.22 4.03 | 4.12 | 2 of 9 (3.57) |
| N33P/G49I/S89W | 4.19 5.54 ND | 4.87 | 0 of 9 |
| N51V/S55M/R90F | 4.13 ND ND | 4.13 | 4 of 9 (3.72) |
| Y31S/F95S/F98W | 2.05 2.46 1.73 | 2.08 | 1 of 9 (3.53) |

Again, the first 4 entries without any signal:

changes,"log10 Kd, replicates","mean, log10 nM",signal with controls
E23I/L27Q/S88K,ND ND ND,ND,3 of 9 (3.65)
G24S/Y29I/F95E,ND ND ND,ND,2 of 9 (3.53)
E23N/S89V/G94V,ND ND ND,ND,3 of 9 (3.65)
S89N/R90D/S93F,ND ND ND,ND,1 of 9 (2.52)

Reference: Engelhart et al. 2022, doi:10.1038/s41597-022-01779-4. File: FLAb, binding data.